# According to patent US9404933B2, “Methods for determining patient response to anti-platelet aggregation therapy” (INVITROX, INC., priority 2011, dated 2016):
# Tested on: human platelets
# Conditions: platelets from 50 patients with a genotype that does not activate Plavix, dosed 75 and 150 mg Plavix; ADP 2 mM, 5 mM, 10 mM; FIG. 14
compound,measurement,value
"COC(=O)[C@H](c1ccccc1Cl)N1CCc2sccc2C1 [Plavix, clopidogrel bisulfate]",platelet activation (change of electrophoretic mobility versus resting platelets) after ADP,they all activate
